Assay outcomes deposited in PubChem by Broad Institute.
Most compounds without a hit are left out; they make up all but 2.1% or so of the library.
UUG fidelity – modulators of start codon recognition fidelity in yeast; AID 602363; hit rate 0.13% among 350,000; activity score, % at 18.7 µM; S. cerevisiae UUG-firefly luciferase reporter, luminescence/redox ratio;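 active = replicate mean at a twofold rise or more, about +100% in these data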;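 note: firefly luciferase made from a UUG start codon reports start codon fidelity; reporter light over untreated wells divided by growth signal over untreated wells; some hits fall short of that in this replicate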
TRPM1 prom inh – inhibitors of MITF-dependent TRPM1 promoter reporter, primary screen, cell-based, SK-MEL-5, single point, luciferase. SK-MEL-5 TRPM1 promoter luciferase, 24 h. inhibition, % at 12.5 µM. 330,000 compounds, 0.83% hits. AID 488899, 2010;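 active = mean inhibition across replicates of 60% or more, whatever share of single replicates reaches that level; inconclusive = some that reach 60%, reason not given; inactive = mean inhibition across replicates below 60%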
MITF act – activators of MITF-driven TRPM1 promoter reporter, primary screen, cell-based, SK-MEL-5, luciferase, single point | SK-MEL-5 TRPM1-promoter luciferase, 24 h; % of positive control, neutral wells = 0 | activation, % at 12.5 µM | 300,000 compounds, 0.75% hits;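 active = mean activation of at least 80% with every replicate also reaching 80%; inconclusive = mean reaches 80% but some replicate falls short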
Wnt bcat act – Wnt/beta-catenin pathway activators, primary screen, cell-based, plate reader, single point; AID 743398, 2014; Wnt/beta-catenin reporter cell assay, activator; activation, % at 9.35 µM; 300,000 compounds, 1.2% hits; in the data active = activation above about 30%, passing the limit was not always enough; inconclusive = no clear call, values can overlap the other calls
miR122 inh – miR-122 Renilla sensor signal increase in Huh7, primary screen, miR-122 inhibitor project, cell-based, single point, plate reader; 340,000 compounds, 0.3% hits; activation (reporter increase), % at 12.5 µM; Huh7 miR-122 Renilla luciferase sensor, 48 h; neutral wells = 0, positive control = 100;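 active = mean replicate activation score at least 90 and every replicate individually at or above 90; inconclusive = only one of the two criteria met; inactive = neither criterion met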;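 note: higher luciferase means less miR-122 activity so hits act as miR-122 inhibitors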
PGC1a acetyl inh – inhibitors of PGC1a acetylation signal, primary screen, cell-based, U2OS, AlphaScreen, inhibitor mode; AlphaScreen anti-acetyl-lysine; with virally co-expressed GCN5 acetyltransferase; inhibition, % at 15.6 µM; 350,000 compounds, 0.17% hits; AID 651687, 2012;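 active = every replicate shows inhibition of at least 40%; inconclusive = mean inhibition at least 40% but some replicate below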
A number is an active result; i = inactive; ? = inconclusive; nt = not tested or not shown; [ ] = dose if it differs, or a comment.

SMILES	UUG fidelity	TRPM1 prom inh	MITF act	Wnt bcat act	miR122 inh	PGC1a acetyl inh
COc1ccc(S(=O)(=O)Nc2ccc3c(c2)C(=O)N([C@@H](C)CO)C[C@@H](C)[C@@H](CN(C)CC2CCCCC2)OCCCC[C@H](C)O3)cc1	i	nt	nt	nt	i	i
COCCNC(=O)/C(C#N)=C/c1cc(C)n(C2CCCCC2)c1C	nt	i	91	i	nt	nt
COCCNC(=O)/C(C#N)=C/c1cc(C)n(-c2ccc(C)cc2)c1C	nt	i	i	i	nt	i
Cn1cc(/C=C2/SC(=O)N(c3ccccc3)C2=O)c2ccccc21	i	i	i	i	i	i
Cn1cccc1/C=C1\SC(=O)N(c2ccccc2)C1=O	i	i	95	41	i	i
O=C(Nc1cccc(F)c1)N1C[C@H]2[C@@H](c3ccccc31)[C@@H](CO)N2C(=O)c1ccccn1	i	nt	nt	nt	i	i
C[C@H]1CCCCO[C@@H](CN(C)C(=O)C2CCCCC2)[C@@H](C)CN([C@@H](C)CO)C(=O)c2cc(NC(=O)C3CCCCC3)ccc2O1	i	nt	nt	nt	i	i
CCC(=O)N1CC2(CCN(Cc3ccc(Cl)cc3)CC2)c2c([nH]c3cc(OC)ccc23)[C@@H]1CO	nt	nt	nt	nt	nt	i
CC1CCC(C(C)C)C(OC(=O)COC(=O)c2cc(O)ccc2N)C1 (stereo not given)	nt	i	i	34	nt	nt
O=C(NCCc1ccccc1)c1cc(-c2ccco2)on1	i	i	i	141	nt	i
COc1ccc(CCNC(=O)c2cc(-c3ccco3)on2)cc1OC	i	i	i	103	nt	i
O=C(NCc1ccccc1)c1cc(-c2ccco2)on1	i	i	i	i	i	i
C[C@H](CO)N1C[C@H](C)[C@H](CN(C)CC2CCCCC2)OCCCC[C@H](C)Oc2ccc(NS(=O)(=O)c3cn(C)cn3)cc2C1=O	i	nt	nt	nt	i	nt
CO[C@H]1CN(C)C(=O)c2cc(NC(=O)Cc3ccccc3)ccc2OC[C@H](C)NC[C@H]1C	nt	nt	nt	nt	nt	i
COc1cc(C2C3=C(CC(C)(C)CC3=O)OC3=C2C(=O)CC(C)(C)C3)cc([N+](=O)[O-])c1O	nt	i	i	i	nt	nt
COc1cc(C2C(C#N)=C(N)OC3=C2C(=O)CC(C)(C)C3)cc([N+](=O)[O-])c1O (stereo not given)	nt	i	i	40	nt	i
O=C(C[C@H]1CC[C@H]2[C@@H](COC[C@@H](O)CN2C(=O)c2cnccn2)O1)NCc1ccc(F)cc1	i	nt	nt	nt	i	i
COC(=O)c1ccc(C(=O)N=c2sccn2C)cc1	i	nt	83	i	i	nt
Cn1ccs/c1=N\C(=O)Nc1ccccc1	i	i	91	i	i	i
Cn1ccsc1=NC(=O)c1ccccc1F	i	i	i	nt	i	i
COc1ccc(C(=O)N=c2sccn2C)cc1	nt	i	i	i	nt	nt
O=C(C[C@H]1C[C@@H]2c3cc(NC(=O)CC4CC4)ccc3O[C@@H]2[C@H](CO)O1)NCc1ccccc1F	i	nt	nt	nt	i	i
C[C@H](CO)N1C[C@H](C)[C@@H](CN(C)Cc2ccc(Cl)c(Cl)c2)Oc2ccc(NS(=O)(=O)c3cn(C)cn3)cc2CC1=O	i	nt	nt	nt	i	i
C=C1C(=O)[C@]23C[C@H]1CCC2[C@@]1(C)C(C[C@@H]3O)[C@](C)(C(=O)OC)CC[C@@H]1O (stereo not given in full)	i	nt	nt	i	i	92
C[C@@]12C(C[C@H](O)[C@@]34C[C@@H](CCC13)[C@@H](CO)C4=O)[C@](C)(C(=O)O)CC[C@@H]2O (stereo not given in full)	i	nt	nt	i	i	i
SMILES	UUG fidelity	TRPM1 prom inh	MITF act	Wnt bcat act	miR122 inh	PGC1a acetyl inh
C[C@H](CO)N1C[C@H](C)[C@@H](CN(C)C(=O)Nc2cccc3ccccc23)Oc2ccc(NC(=O)Nc3ccc(C(F)(F)F)cc3)cc2CC1=O	i	nt	nt	nt	i	i
C[C@@H]1CN([C@@H](C)CO)C(=O)Cc2cc(NC(=O)Nc3ccc(C(F)(F)F)cc3)ccc2O[C@@H]1CN(C)C(=O)Nc1cccc2ccccc12	i	nt	nt	nt	265[16.7 µM]	i
C[C@@H]1CN([C@H](C)CO)C(=O)Cc2cc(NC(=O)Nc3ccc(C(F)(F)F)cc3)ccc2O[C@@H]1CN(C)C(=O)Nc1cccc2ccccc12	i	nt	nt	nt	112[16.7 µM]	i
O=C(NC1CCC1)[C@H]1[C@H](CO)[C@H]2Cn3c(ccc(-c4ccccc4)c3=O)[C@@H]1N2	i	nt	nt	nt	i	nt
Cc1cc(OC(C)C(N)=O)nc(-c2ccccc2)n1 (stereo not given)	nt	i	i	39	i	i
Nc1c(-c2cccs2)cnc2c(-c3ccc(F)cc3)cnn12	i	i	i	54	nt	i
Nc1c(-c2ccccc2)cnc2c(-c3ccccc3)cnn12	i	i	nt	i	i	i
CC1CCN(c2ccc(-c3cccc(NC(=O)C(F)(F)F)c3)nn2)CC1	i	i	i	i	i	nt
O=S(=O)(Nc1cccc(-c2ccc(N3CCCCCC3)nn2)c1)c1cccc(F)c1	i	i	98	i	i	i
O=C(Nc1cccc(-c2ccc(N3CCCCC3)nn2)c1)C(F)(F)F	i	62	i	i	i	i
Cc1noc(C)c1NC(=O)Nc1ccc2c(c1)C(=O)N([C@@H](C)CO)C[C@H](C)[C@H](CN(C)Cc1ccncc1)OCCCC[C@H](C)O2	i	nt	nt	nt	i	i
CCn1cc([N+](=O)[O-])c(C(=O)Nc2ccc3c(c2)OCCO3)n1	i	i	i	nt	i	i
CCn1cc([N+](=O)[O-])c(C(=O)NCc2ccc3c(c2)OCO3)n1	i	i	i	i	i	42
COc1ccc2c3c([nH]c2c1)[C@@H](CO)N(Cc1ccc(Cl)cc1)CC31CCN(Cc2nccs2)CC1	nt	nt	nt	nt	nt	i
CCCS(=O)(=O)Nc1ccc(Nc2c3ccccc3nc3ccccc23)c(OC)c1	nt	75	nt	i	i	i
COc1ccc(Nc2c3c(nc4ccccc24)CCC3)c(OC)c1	i	i	i	i	i	i
O=C(Nc1ccc(Cl)cc1Cl)c1ccc2c(=O)n3c(nc2c1)CCC3	i	i	?	42	i	nt
